# Assay results reported in PubChem BioAssay (Tox21).
# This is a selection; strong and weak results do not stand in their true shares. Records with an inconclusive call do not appear. Activity calls are given as the source filed them. Calls follow the shape of the dose curve; as a rule, active = well fitted cell-killing curve with a large enough effect in the repeat runs; inconclusive = weak or mixed curves, or effect the other way; inactive = flat fitted curve, though single readings scatter.
# Experiment: Nuclear factor erythroid 2-related factor 2/antioxidant responsive element (Nrf2/ARE) small molecule agonists: qHTS cell viability counter screen in human keratinocytes (AID 1919968); also: nearly all actives have a fitted effect of over 55% in size
# Conditions: KeratinoSens HaCaT ARE cells viability, CellTiter-Fluor, 24 h; series mostly up to 92.4 µM; activity change, negative = cytotoxicity: at the top concentration
# From the text: U.S. Tox21 Program National Center for Advancing Translational Sciences [NCATS] Division of Preclinical Innovation [DPI] U.S. Environmental Protection Agency [EPA] National Institutes of Environmental Health Sciences [NIEHS] National Toxicology Program [NTP] U.S. Food and Drug Administration [FDA] Tox21 Assay Overview: Oxidative stress has been implicated in the pathogenesis of a variety of diseases ranging from cancer to neurodegeneration. The antioxidant response element (ARE) signaling pathway plays an important role in the amelioration of oxidative stress. The KeratinoSens (Givaudan, Switzerland) is an in vitro test method which quantifies luciferase induction as a measure of activation of Keap1-Nrf2-antioxidationt/electrophile response element (ARE) dependant pathway in HaCaT human keratinocytes stably transfected with a selectable plasmid. The KeratinoSens assay is a cell-based assay with a reporter cell line to detect potential skin sensitizers by their ability to induce the Nrf2/ARE-response. The activation of the report gene under culture conditions can be detected by ONE-Glo Luciferase Assay System (Promega, Madison, WI). This cell line has been used to screen the Tox21 10K compound library to identify agonists that induce oxidative stress. The cytotoxicity of the Tox21 compound library against the KS-ARE cell line was tested in parallel by measuring the cell viability using CellTiter- Fluor assay system (Promega, Madison, WI) in the same wells.
# Tox21 Assay Protocol Summary: HaCaT derived cell line KeratinoSens were dispensed at 1,500 cells/5uL/well in 1536-well white wall/solid bottom plates using a Multidrop Combi (ThermoFisher Scientific, Waltham, MA) dispenser. After the assay plates were incubated at 37 C/5% CO2 for 5 h, 23 nL of compounds dissolved in DMSO, positive controls or DMSO only was transferred to the assay plate by a pintool workstation (Kalypsys, San Diego, CA). The plates were incubated at 37 C/5% CO2 for 23 h, followed by addition of 1uL/well of CellTiter-Fluor reagent into the assay plates using a Flying Reagent Dispenser (Aurora Discovery, San Diego, CA) for cell viability readout that measures cytotoxicity. After 1 h incubation at 37 C/5% CO2 the fluorescence intensity was measured using a ViewLux (PerkinElmer, Shelton, CT) plate reader.
# % is scaled to controls: 0 for no effect and ±100 for the full control effect; potency is read from the fitted curve at half-maximal effect.
Structure (SMILES),"activity change, negative = cytotoxicity",Potency
O=C(Cl)OCCOC(=O)Cl,inactive: 0.614%,
O=[N+]([O-])c1ccc(S(=O)(=O)O)c([N+](=O)[O-])c1,inactive: -1.58%,
CCOC(=O)Cl,inactive: 5.9%,
CCC(C)(OOC(C)(C)C)OOC(C)(C)C,inactive: 0.57% [at 19 µM],
CCOP(=S)(CC)Sc1ccccc1 (stereo unspecified),inactive: -1.08%,
O=[As]c1ccccc1 (stereo unspecified),,active: 969 nM
O=P(Cl)(Cl)c1ccccc1,inactive: -5.74%,
O=P(Cl)(Oc1ccccc1)Oc1ccccc1,inactive: -2.21%,
CC(C)CCCCCCCOP(OCCCCCCCC(C)C)Oc1ccccc1,inactive: 10.5%,
CCCCOP(OCCCC)OCCCC,inactive: 2.45%,
O=[p+]1oc2ccccc2c2ccccc21 (stereo unspecified),inactive: -0.539%,
CC(C)OP(=S)(OC(C)C)SCCNS(=O)(=O)c1ccccc1,inactive: -0.544%,
CN(N=O)C(=N)N[N+](=O)[O-],inactive: -0.504%,
NC(=O)Nc1ccc([As](=O)(O)O)cc1,,inactive
CN(C(=O)Cc1cccc2occc12)[C@H]1CC[C@@]2(CCCO2)C[C@@H]1N1CCCC1,inactive: -12.1%,
COC(=O)Cl,inactive: -2.8%,
Cc1cc([N+](=O)[O-])c(O)c([N+](=O)[O-])c1,inactive: -18.9%,
O=[P+](Oc1ccccc1)Oc1ccccc1,inactive: 3.38%,
O=C(Cl)Oc1ccccc1,inactive: 3.45%,
CN(C(=O)Cc1ccc(Cl)c(Cl)c1)[C@H]1CC[C@@]2(CCCO2)C[C@@H]1N1CCCC1,inactive: 1.01% [at 42.5 µM],
ClP(Cl)c1ccccc1,inactive: 3.02%,
CCCCO[P+](=O)OCCCC,,inactive
CCCCC(CC)CO[P+](=O)OCC(CC)CCCC (stereo unspecified),inactive: -6.81%,
COP(=S)(Cl)OC,inactive: 2.95%,
CN(C(=O)Cc1ccccc1)[C@H]1CC[C@@]2(CCCO2)C[C@@H]1N1CCCC1,inactive: 0.969% [at 42.5 µM],
CCNC(C)Cc1ccc2c(c1)OCO2 (stereo unspecified),inactive: 1.4%,
